# Key:
# [1] = system: blood T-cell subsets and CD14 monocytes of ALS patients
# [2] = system: serum IgG and IgM
# [3] = blood of ALS patients on medication, mean ± SD
# [4] = ALS patients on medication, mean ± SD
smiles,measurement,setting,value
Nc1nc2ccc(OC(F)(F)F)cc2s1 [riluzole],"Macrophage activation status in treated ALS patients, in words","[1]; CD14 co-expression of HLA-DR, ALS/sALS patients on medication",not improved
same,% CD4,[1]; [3],46.10 ± 7.45%
same,% CD4CD38,[1]; [3],27.88 ± 10.76%
same,% CD8,[1]; [3],20.20 ± 7.69%
same,% CD8CD38,[1]; [3],13.20 ± 9.62%
same,% CD14,[1]; [3],2.28 ± 1.22%
same,% CD14CD16,[1]; [3],44.22 ± 12.91%
same,CD14 SSC,[1]; [3],457.4 ± 153.2
same,Med CD4CD38 (median CD38 fluorescence expressed on CD4 T-cell),[1]; [3],12.76 ± 12.62
same,Med CD8CD38 (median CD38 fluorescence expressed on CD8 T-cell),[1]; [3],4.90 ± 8.55
same,CD4/CD8,"[1]; blood of ALS patients on medication, riluzole 50 mg twice daily, NSAIDS standard dose, mean ± SD",2.77 ± 1.54
same,Serum-IgG,[2]; [4],7.90 ± 4.58 mg/mL
same,Serum-IgM,[2]; [4],2.78 ± 3.03 mg/mL
same,"Serum-IgM levels, effect of therapy in words","[2]; ALS patients, treatment categories compared",no different from untreated patients

# — US9364501B2, “Chlorite in the treatment of neurodegenerative disease” (The Regents of the University of California, priority 2004, dated 2016)
